Literature values as cited in patent US20210087191A1, “SUBSTITUTED 3-ISOBUTYL-9,10-DIMETHOXY-1,3,4,6,7,11B-HEXAHYDRO-2H-PYRIDO[2,1-a]ISOQUINOLIN-2-OL COMPOUNDS, THEIR SYNTHESIS, AND USE THEREOF” (DISPERSOL TECHNOLOGIES, LLC, priority 2020, published 2021).

Chains of the proteins cited; added tags and fusions are not shown.
UniProt Q05940, whole entry, species assumed: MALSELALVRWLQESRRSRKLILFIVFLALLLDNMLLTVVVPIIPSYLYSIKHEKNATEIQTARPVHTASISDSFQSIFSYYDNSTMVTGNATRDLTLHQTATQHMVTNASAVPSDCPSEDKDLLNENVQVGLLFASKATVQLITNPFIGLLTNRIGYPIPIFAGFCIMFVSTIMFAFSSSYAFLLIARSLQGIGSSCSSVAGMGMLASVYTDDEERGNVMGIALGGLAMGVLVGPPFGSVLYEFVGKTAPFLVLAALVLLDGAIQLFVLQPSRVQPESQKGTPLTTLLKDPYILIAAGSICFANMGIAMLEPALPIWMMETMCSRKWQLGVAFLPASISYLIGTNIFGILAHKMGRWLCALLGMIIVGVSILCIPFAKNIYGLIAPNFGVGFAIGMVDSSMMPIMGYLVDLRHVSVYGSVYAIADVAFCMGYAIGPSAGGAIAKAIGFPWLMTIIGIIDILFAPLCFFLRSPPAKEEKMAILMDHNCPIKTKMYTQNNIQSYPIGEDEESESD

Biological target: VMAT2 (Homo sapiens, UniProt Q05940)
Details: compared to the other three isomers; cited from earlier work

COc1cc2c(cc1OC)[C@H]1C[C@@H](O)[C@H](CC(C)C)CN1CC2 [(+)-α-DHTBZ, 2R,3R,11bR-dihydrotetrabenazine]
inhibitory concentration for VMAT2: lowest inhibitory concentration
